Test results taken from ChEMBL document CHEMBL1133581, “Synthesis and in vitro and in vivo functional studies of ortho-substituted phenylpiperazine and N-substituted 4-N-(o-methoxyphenyl)aminopiperidine analogues of WAY100635” (J Med Chem, 2000).

The chains behind the UniProt entries cited, without tags or fusion partners.
UniProt P19327, whole entry: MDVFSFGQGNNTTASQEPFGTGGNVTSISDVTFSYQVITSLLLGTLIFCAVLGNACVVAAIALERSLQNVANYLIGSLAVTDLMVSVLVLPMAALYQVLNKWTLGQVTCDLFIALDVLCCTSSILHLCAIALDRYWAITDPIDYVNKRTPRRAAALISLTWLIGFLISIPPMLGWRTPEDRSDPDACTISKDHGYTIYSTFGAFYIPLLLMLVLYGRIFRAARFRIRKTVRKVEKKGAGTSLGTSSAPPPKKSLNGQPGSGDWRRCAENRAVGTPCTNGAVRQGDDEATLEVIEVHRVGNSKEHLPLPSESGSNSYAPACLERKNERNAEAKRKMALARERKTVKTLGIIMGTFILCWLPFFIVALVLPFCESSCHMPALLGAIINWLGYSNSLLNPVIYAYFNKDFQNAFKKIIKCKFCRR

Target: 5-hydroxytryptamine receptor 1A (Rattus norvegicus, UniProt P19327)
Conditions: Hippocampus

Q: For `COc1ccccc1N(C(=O)C1CCCCC1)C1CCN(CCN(C(=O)C2CCCCC2)c2ccccn2)CC1`, which IC50 is on record?
A: 500 nM

Only a part of the results on these compounds is given; other tests are left out.
